Assay results as given in ChEMBL document CHEMBL4828734, “Discovery of High-Affinity Inhibitors of the BPTF Bromodomain” (J Med Chem, 2021).

System: MV4-11
Experiment: Antiproliferative activity against human MC4-11 cells assessed as reduction in cell viability after 5 days by Celltiter-Glo assay
Assay type: functional, cell-based
Settings: time 5.0 day

Compound: CN(C)CCCn1ccc2cc(-c3nc(S(C)(=O)=O)nc4[nH]ccc34)ccc21
- Activity: Dose-Dependent Effect
